## Measured affinities in a library of Ab-14 heavy chain variants

Target: peptide PDVDLGDISGINAS, taken from heptad repeat 2 (HR2) of SARS-CoV-2 spike.

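The starting antibody came from a phage panning campaign against this peptide. Variants in AAYL49 differ from the parent at up to three CDR positions; double and triple changes were sampled at random. The assay is AlphaSeq: two haploid yeast populations carry antibody and antigen on their surface. After mating in shaken culture at 30 °C for 16 h, diploids were selected and their barcode pairs sequenced. Read counts were normalised to the haploid input and turned into Kd by a linear fit to BCL2-family pairs of known affinity, for each replicate. The assay was run in three technical replicates.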

Ab-14 is the parent antibody, in scFv form: VH, then a (GGGGS)3 linker, then VL. The light chain is unchanged in all variants.
VH: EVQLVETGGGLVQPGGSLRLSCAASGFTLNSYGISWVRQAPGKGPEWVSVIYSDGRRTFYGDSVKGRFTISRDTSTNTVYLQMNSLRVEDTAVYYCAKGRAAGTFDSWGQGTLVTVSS
VL: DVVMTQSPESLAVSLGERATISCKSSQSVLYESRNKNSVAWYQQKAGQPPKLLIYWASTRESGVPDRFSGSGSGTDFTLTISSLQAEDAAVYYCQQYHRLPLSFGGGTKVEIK

Each variant is given by its three heavy chain CDRs, as the data file delimits them; those of the parent are GFTLNSYGIS, VIYSDGRRTFYGDSVK, GRAAGTFDS.
The read-out is the apparent dissociation constant on a log10 scale (nM): the lower, the stronger.
A mean of the replicates is given; it leaves out those without a signal.
"nd" marks a missing value. The strain was present, yet no cells mated with the target were sequenced in that replicate, which points to weak or no binding.

Variant GFTLNSYGIS | VIISDGRRTIYGFSVK | GRAAGTFDS gave nd, nd, nd.
Variant DFTLNSYGIS | DIYSDGRRTFYGDSVK | GRAAGTFDS gave nd, nd, 3.38.
Variant GFTLNSYGIS | NIYSDGRRTGYGDTVK | GRAAGTFDS gave nd, nd, nd.
Variant WFELNRYGIS | VIYSDGRRTFYGDSVK | GRAAGTFDS gave 3.46, 2.73, 3.61 (mean 3.27).
Variant GFTLLSYGIS | VIYSAGNRTFYGDSVK | GRAAGTFDS gave 3.92, nd, nd.
Variant YFTLNSYGIS | VEYSDGRRTFYGDSVK | GRAAGTFMS gave nd, nd, nd.
Variant YFSLNSYGIS | VIYSDGRRTFYGDSVK | HRAAGTFDS gave nd, 2.35, nd.
Variant GFTLNSYGIS | VIYSDGARTFYGDSVK | GTAAGTFDE gave 0.76, 1.01, 0.85 (mean 0.88).
Variant GFTANSYGIS | VIYSDGRRTFYGQSVK | GWAAGTFDS gave nd, nd, nd.
Variant GFTLNSYGIS | VPYSDMRRTFYGDSVK | GRAAGIFDS gave nd, 5.17, 4.19 (mean 4.68).
Variant GFTLNSYGIS | VIYSDGRRTFYGGSVK | AWAAGTFDS gave nd, nd, nd.
Variant GFTLNSYDAS | RIYSDGRRTFYGDSVK | GRAAGTFDS gave nd, nd, nd.
Variant GFDLNSYGIS | VIYYDHRRTFYGDSVK | GRAAGTFDS gave 2.90, 2.92, nd (mean 2.91).
Variant GFTSNSYGIS | VIYIDGRRTFYGDSVK | GRQAGTFDS gave nd, nd, nd.
Variant GWTLNSYGIS | VIYSDGRRTFYGDSVK | YRAAGTSDS gave 2.78, 2.82, 3.01 (mean 2.87).
Variant GFTLNSYGIL | VIYSDGRRTFYGDSVK | GRAAQTFDS gave nd, nd, 3.51.
Variant GFTLNSYGIS | VIYSDGRRTFYGDKVK | GRAAGTYSS gave 2.58, 3.11, 3.03 (mean 2.91).
Variant GFTLNSYGIS | VIHSDGRQTFYGDSVK | GRAAGTFDS gave 4.73, nd, nd.
Variant GFTLNSYGIS | VIYSTGRRTFYQDSVK | ARAAGTFDS gave 5.15, nd, nd.
Variant GFTLNSYGIS | VIYSDGRRTSYGDWVK | GRAAGQFDS gave nd, nd, nd.
Variant GFTRNSWGIS | VAYSDGRRTFYGDSVK | GRAAGTFDS gave nd, nd, 2.52.
Variant GFTLNSYGIS | VIYSDGRRTFYGDSVK | GGAAWTFMS gave nd, nd, nd.
Variant GFTLNSYGIV | CIYSDGRRTFYGDSVK | GRAAGTFDS gave nd, nd, nd.
Variant GFTLNSYGGS | VIYSDGRRTFYLDSVK | GRAAGTFDS gave nd, 3.26, 5.06 (mean 4.16).
Variant GFTLNSYGIT | VIYSCGRRTFYGDSVK | GRAAGTDDS gave nd, nd, nd.
Variant GFTLNSYGIS | VIYSNGRRTFYGDSVV | GRAAGTFDS gave nd, nd, nd.
Variant GFTLNSYGIS | QIYSRGRRTFYGDSVK | GRAAGTFFS gave nd, nd, nd.
Variant QFTANSYGIS | VIYSDGRRTFYGDSVF | GRAAGTFDS gave nd, 3.24, nd.
Variant GFTLNSYGIS | VWYSDGRRTFYGDTVK | GRAAGTFDS gave nd, nd, nd.
Variant GFTLNSLGIS | VMYSDGRRTFIGDSVK | GRAAGTFDS gave nd, 3.85, nd.
Variant GFTLNSYGIS | VIYSDLRRCFYGDSVK | GRAGGTFDS gave nd, 4.49, nd.
Variant GFTLNSYGIS | VTYSDGRRTFYGDSVK | GRAAGSFDA gave nd, nd, nd.
Variant GFTLNSYGIS | VIYSKGRRTFYGDSVK | QRAAGTFES gave nd, nd, nd.
Variant GFTLNSPGIP | VIYYDGRRTFYGDSVK | GRAAGTFDS gave nd, nd, nd.
Variant GFTLNSYGIS | VIYSDGARTFYGDSVK | GRAAGTHDV gave nd, nd, nd.
Variant GFTLNSYGIS | VIYDDGRRTFYGDSVK | PRAIGTFDS gave nd, 3.81, nd.
Variant GFTLNSTGIS | RIYSDGRRTFYGDSVK | GRAAGTFMS gave nd, nd, nd.
Variant GFWLNSYGIS | VIVSDGRRTFYGDSVK | GRAAGTFDS gave nd, nd, nd.
Variant GFTLNSYGIS | VIYSDGRRDFYGDSVK | LRALGTFDS gave nd, 4.09, nd.
Variant GFTLNSYGIS | FYYSDGRRTFYGDSVK | DRAAGTFDS gave nd, nd, nd.
Variant GLTLNSYGIS | VIYSDGRRTFYGDSMK | NRAAGTFDS gave nd, nd, nd.
Variant TFTLNSYGIS | VIMEDGRRTFYGDSVK | GRAAGTFDS gave nd, nd, nd.
Variant GFTLNSYGIL | VIYTDGRRTFEGDSVK | GRAAGTFDS gave nd, nd, nd.
Variant GFTLNSYGIS | VIKSDGRRTFYGDSVK | NRAAGTLDS gave 4.81, 4.30, 6.44 (mean 5.18).
Variant WFTLNSYGIS | VIYSDGDRTFYGDSVK | WRAAGTFDS gave nd, nd, nd.
Variant GFTLNSYGIS | VIYSDGRRTDYGDSVK | GMAAGKFDS gave nd, nd, nd.
Variant GFTLNSYGIS | VIYSDGRRTFYGDSNK | GMAAGTCDS gave nd, 3.65, nd.
Variant GFTLNSYGIS | VIYSDGRRTFYGDSVK | QRAAGTEDS gave nd, nd, nd.
Variant GFTLNSYGIS | VIKSDGRMTFYGDSVK | GRAAGTFDS gave nd, nd, 4.84.
Variant GFTNNSHSIS | VIYSDGRRTFYGDSVK | GRAAGTFDS gave 0.76, 0.74, 0.36 (mean 0.62).
Variant GFTLLSYGIS | VIYSDGRRTFYGNSVQ | GRAAGTFDS gave 2.14, 2.13, nd (mean 2.14).
Variant GFTLNSYGIS | VIYSDGRRTFYGDSVK | IRAAGTFKS gave nd, nd, nd.

Repeated from above, the 6 best binders with a signal in all replicates:

{"CDR-H1": "GFTNNSHSIS", "CDR-H2": "VIYSDGRRTFYGDSVK", "CDR-H3": "GRAAGTFDS", "replicates, log10 nM": "0.76, 0.74, 0.36", "mean, log10 nM": "0.62"}
{"CDR-H1": "GFTLNSYGIS", "CDR-H2": "VIYSDGARTFYGDSVK", "CDR-H3": "GTAAGTFDE", "replicates, log10 nM": "0.76, 1.01, 0.85", "mean, log10 nM": "0.88"}
{"CDR-H1": "GWTLNSYGIS", "CDR-H2": "VIYSDGRRTFYGDSVK", "CDR-H3": "YRAAGTSDS", "replicates, log10 nM": "2.78, 2.82, 3.01", "mean, log10 nM": "2.87"}
{"CDR-H1": "GFTLNSYGIS", "CDR-H2": "VIYSDGRRTFYGDKVK", "CDR-H3": "GRAAGTYSS", "replicates, log10 nM": "2.58, 3.11, 3.03", "mean, log10 nM": "2.91"}
{"CDR-H1": "WFELNRYGIS", "CDR-H2": "VIYSDGRRTFYGDSVK", "CDR-H3": "GRAAGTFDS", "replicates, log10 nM": "3.46, 2.73, 3.61", "mean, log10 nM": "3.27"}
{"CDR-H1": "GFTLNSYGIS", "CDR-H2": "VIKSDGRRTFYGDSVK", "CDR-H3": "NRAAGTLDS", "replicates, log10 nM": "4.81, 4.30, 6.44", "mean, log10 nM": "5.18"}

As a blank, each scFv also met three strains without target: over library AAYL49, 15% of these pairings were detected, typically at 4.06 and seldom below 2.83.

Source: Engelhart et al. 2022 (doi:10.1038/s41597-022-01779-4), MIT Lincoln Laboratory and A-Alpha Bio; data file from the FLAb repository.